Source: ChEMBL document CHEMBL1146370 (Bioorg Med Chem, 2007)

The chains behind the UniProt entries cited, without tags or fusion partners.
UniProt P37288, whole entry: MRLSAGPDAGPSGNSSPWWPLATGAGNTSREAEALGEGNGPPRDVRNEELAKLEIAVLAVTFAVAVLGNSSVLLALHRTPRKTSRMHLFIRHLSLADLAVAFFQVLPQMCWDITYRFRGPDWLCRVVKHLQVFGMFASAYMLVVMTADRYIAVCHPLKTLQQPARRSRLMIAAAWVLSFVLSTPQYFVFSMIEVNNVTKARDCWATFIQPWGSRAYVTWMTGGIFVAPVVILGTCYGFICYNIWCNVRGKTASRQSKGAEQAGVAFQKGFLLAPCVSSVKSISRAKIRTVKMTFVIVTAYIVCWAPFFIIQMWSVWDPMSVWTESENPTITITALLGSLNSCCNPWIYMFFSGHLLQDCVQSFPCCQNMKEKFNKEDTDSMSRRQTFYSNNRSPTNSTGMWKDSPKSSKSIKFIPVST

Target: Vasopressin V1a receptor (Homo sapiens, UniProt P37288)
Test: Binding affinity for human cloned vasopressin V1a receptor expressed in CHO cells
Assay type: cell-based
Summary of the method: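 Whole-cell competition binding on CHO cells stably expressing human V1a, grown in alpha-MEM with 10% FBS and 250 ug/ml G418. Cells were plated at least 2 days ahead and incubated 30 min at 37 °C in HEPES/BSA/DMEM buffer (pH 7.0) with 1 nM [3H]AVP and 5 test concentrations (usually 0.1–1000 nM), in triplicate. Nonspecific binding was set with 100 nM AVP. Bound radioactivity was SDS-lysed and scintillation-counted. Curve-fit IC50 was converted to Ki with a 0.61 factor.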

| IC50 [nM] | Ki [nM] | Structure (SMILES) |
| --- | --- | --- |
| 39 |  | CC(C)C[C@@H](C(=O)OCc1ccccc1)N1C(=O)[C@@H](N2C(=O)OC[C@@H]2c2ccccc2)[C@H]1/C=C/c1ccccc1 |
|  | 1.13 | O=C(NCc1cccc(C(F)(F)F)c1F)[C@H](CC(=O)N1CCC(N2CCCCC2)CC1)N1C(=O)[C@@H](N2C(=O)OC[C@@H]2c2ccccc2)[C@H]1/C=C/c1ccccc1 |
| 43 |  | CC1(C(C(=O)NCc2ccccc2)N2C(=O)[C@@H](N3C(=O)OC[C@@H]3c3ccccc3)[C@H]2/C=C/c2ccccc2)OCCO1 (some centres undefined) |
| 10 |  | CC(C)(C)C(O)C(C(=O)OCc1ccccc1)N1C(=O)[C@@H](N2C(=O)OC[C@@H]2c2ccccc2)[C@H]1/C=C/c1ccccc1 (some centres undefined) |
